In PubChem BioAssay AID624325 (Sanford-Burnham Center for Chemical Genomics, 2012) one finds inhibition data, which are given here for five molecules.

By UniProt entry, the sequences of proteins in these tests, tags left out.
UniProt P49327, whole entry: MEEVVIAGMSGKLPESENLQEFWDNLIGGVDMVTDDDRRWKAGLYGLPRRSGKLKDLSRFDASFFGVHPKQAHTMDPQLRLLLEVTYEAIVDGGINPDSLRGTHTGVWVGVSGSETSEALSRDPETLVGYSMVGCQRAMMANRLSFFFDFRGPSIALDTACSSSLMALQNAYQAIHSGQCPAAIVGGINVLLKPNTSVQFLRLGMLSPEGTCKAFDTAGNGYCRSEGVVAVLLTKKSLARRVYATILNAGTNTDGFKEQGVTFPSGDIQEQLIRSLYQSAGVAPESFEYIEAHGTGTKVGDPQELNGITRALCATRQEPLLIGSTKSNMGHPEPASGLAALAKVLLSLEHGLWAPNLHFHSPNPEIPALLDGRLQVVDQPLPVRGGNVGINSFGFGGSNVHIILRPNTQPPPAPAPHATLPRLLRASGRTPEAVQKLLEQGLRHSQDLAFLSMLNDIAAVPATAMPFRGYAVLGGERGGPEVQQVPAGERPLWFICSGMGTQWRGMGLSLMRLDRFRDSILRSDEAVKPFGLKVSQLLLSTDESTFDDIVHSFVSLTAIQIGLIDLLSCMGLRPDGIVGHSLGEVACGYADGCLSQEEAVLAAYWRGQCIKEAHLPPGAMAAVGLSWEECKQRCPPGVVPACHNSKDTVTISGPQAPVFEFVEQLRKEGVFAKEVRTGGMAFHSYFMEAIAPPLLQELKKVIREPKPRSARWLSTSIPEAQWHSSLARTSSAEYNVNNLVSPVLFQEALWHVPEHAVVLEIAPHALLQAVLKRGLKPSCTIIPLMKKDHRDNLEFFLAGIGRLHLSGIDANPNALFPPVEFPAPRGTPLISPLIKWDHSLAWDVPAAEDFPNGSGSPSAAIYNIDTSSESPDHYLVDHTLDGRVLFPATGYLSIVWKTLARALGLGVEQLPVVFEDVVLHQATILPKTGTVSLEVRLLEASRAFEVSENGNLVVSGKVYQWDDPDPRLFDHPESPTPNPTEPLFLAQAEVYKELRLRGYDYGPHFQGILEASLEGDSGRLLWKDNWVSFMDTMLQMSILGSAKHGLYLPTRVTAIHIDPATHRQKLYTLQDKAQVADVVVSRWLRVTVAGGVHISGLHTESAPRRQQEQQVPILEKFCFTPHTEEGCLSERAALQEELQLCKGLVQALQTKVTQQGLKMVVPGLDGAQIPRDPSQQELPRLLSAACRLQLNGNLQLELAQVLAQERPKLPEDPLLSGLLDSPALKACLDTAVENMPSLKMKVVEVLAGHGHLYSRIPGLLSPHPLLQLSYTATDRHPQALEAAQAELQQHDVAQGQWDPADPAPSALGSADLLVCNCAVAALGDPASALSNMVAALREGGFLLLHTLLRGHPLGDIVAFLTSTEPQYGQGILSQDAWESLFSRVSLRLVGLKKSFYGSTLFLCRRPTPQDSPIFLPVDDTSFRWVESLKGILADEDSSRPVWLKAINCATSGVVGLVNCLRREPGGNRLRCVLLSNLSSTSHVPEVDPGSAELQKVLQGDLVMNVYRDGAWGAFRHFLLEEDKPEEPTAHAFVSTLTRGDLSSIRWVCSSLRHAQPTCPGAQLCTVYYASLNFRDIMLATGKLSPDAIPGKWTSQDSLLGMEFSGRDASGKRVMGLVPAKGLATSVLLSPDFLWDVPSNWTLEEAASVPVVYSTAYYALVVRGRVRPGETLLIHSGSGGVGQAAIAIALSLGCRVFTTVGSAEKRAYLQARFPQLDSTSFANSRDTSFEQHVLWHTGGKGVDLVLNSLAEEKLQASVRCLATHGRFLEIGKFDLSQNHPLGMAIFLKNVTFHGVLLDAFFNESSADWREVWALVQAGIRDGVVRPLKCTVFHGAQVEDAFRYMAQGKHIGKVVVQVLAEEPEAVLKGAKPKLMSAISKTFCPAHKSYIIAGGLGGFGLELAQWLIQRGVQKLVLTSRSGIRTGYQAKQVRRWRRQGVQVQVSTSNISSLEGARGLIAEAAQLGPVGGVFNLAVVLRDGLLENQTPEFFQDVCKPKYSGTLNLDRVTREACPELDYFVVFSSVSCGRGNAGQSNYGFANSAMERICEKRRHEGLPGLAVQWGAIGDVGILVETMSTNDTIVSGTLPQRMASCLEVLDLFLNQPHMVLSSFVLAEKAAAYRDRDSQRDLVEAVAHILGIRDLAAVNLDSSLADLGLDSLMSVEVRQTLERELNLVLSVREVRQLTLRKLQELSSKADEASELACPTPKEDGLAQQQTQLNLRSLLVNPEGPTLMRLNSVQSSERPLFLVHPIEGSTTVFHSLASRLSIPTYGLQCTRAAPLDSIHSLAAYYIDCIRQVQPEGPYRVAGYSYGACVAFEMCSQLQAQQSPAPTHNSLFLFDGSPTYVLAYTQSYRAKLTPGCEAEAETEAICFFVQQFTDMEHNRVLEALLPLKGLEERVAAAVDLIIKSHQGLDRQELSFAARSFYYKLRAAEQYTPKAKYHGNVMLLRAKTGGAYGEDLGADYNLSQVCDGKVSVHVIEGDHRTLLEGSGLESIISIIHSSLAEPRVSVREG

The list shows a part of the results, in another mix than the full data. Active and inactive are the calls of the source.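 The calls were made as follows: active = compounds inhibiting the enzyme by at least 50% at 15 µM in any one of the replicates; inactive = the rest.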

For the experiment, the target named is Fatty acid synthase (Homo sapiens) (UniProt P49327). Nature of the experiment: inhibition of human FAS-TE enzyme activity – biochemical, fluorescence intensity, single concentration, confirmation (AID 624325).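 Also: 0% = enzyme with DMSO only and 100% = wells lacking enzyme.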 Particulars: recombinant FAS-TE, OMFH fluorogenic substrate, at 15 µM, stronger effect = higher value.
Regarding `O=c1[nH]c2ccccc2n1C1CCN(C(c2cc3ccccc3o2)c2nnnn2C2CCCCC2)CC1` (stereo not given), the inhibition was inactive: 27.2%.

`O=c1[nH]c2ccccc2n1C1CCN(C(c2cccc3ccccc23)c2nnnn2C2CCCC2)CC1` (stereo not given): the inhibition was inactive: 28.4%.

As to `CCCCn1nnnc1C(c1cccc2ccccc12)N1CCC(n2c(=O)[nH]c3ccccc32)CC1` (stereo not given), the inhibition was inactive: 28.7%.

Turning to `CC(C)(C)n1nnnc1C(c1cccc2ccccc12)N1CCC(n2c(=O)[nH]c3ccccc32)CC1` (stereo not given), the inhibition was inactive: -2.37%.

With `O=c1[nH]c2ccccc2n1C1CCN(C(c2cc3ccccc3o2)c2nnnn2C2CCCC2)CC1` (stereo not given), the inhibition was inactive: 17.6%.

Broadly, the inhibition is the relative decrease from the control value, in per cent.
